Sampled rows, rich in hits. Any-hit rate of the full collection: about 2.2%.
B2AR arrestin: agonists driving beta-arrestin recruitment to human beta2-adrenergic receptor; AID 492947; P07550; hit rate 0.02% among 330,000; beta-arrestin recruitment to beta2AR, cell-based reporter; Potency, µM (top dose mostly 46.1 µM), inactives show top-dose activation, most hits filed as activators;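 also: potency is read from the fitted curve at half-maximal effect; 0% = DMSO controls and full agonism = EC100 isoproterenol or metaproterenol; nearly all actives have a fitted effect of over 65% in size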
Nrf2 activator: activators of Nrf2 (ARE) signaling | AREc32 ARE-luciferase reporter (MCF7-derived line), luminescence, 24 h | Potency, µM (top dose mostly 46.1 µM), without a hit: top-dose activation, hits mostly activators | hit rate 0.31% among 410,000 | AID 624171; also: potency is read from the fitted curve at half-maximal effect; % of control where 0% means no effect; nearly all actives have a fitted effect of over 65% in size
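Cells of the AREc32 ARE-luciferase line are plated in OPTI-MEM containing 5% FBS and left overnight at 37 deg C. Compounds are pinned in, incubation continues 24 hr, and firefly luciferase signal is then measured.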
Nrf2 inh: blocks Nrf2 signaling | A549 ARE-Fluc reporter, luciferase luminescence, 18-24 h | Potency, µM (titrated, usually from 46 µM), for inactives: at the highest dose activity change, negative = inhibition, usual class: inhibitors | hit rate 2.1% among 360,000 | AID 504444; also: potency is read from the fitted curve at half-maximal effect; % is scaled to controls: 0 for no effect and ±100 for the full control effect; nearly all actives have a fitted effect of over 60% in size
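Nrf2 function is reported as luminescence of an ARE-controlled luciferase in A549 cells. Compounds were tested at several concentrations, and a CellTiter-Fluor read on the same wells flagged cytotoxicity.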
A549 tox: kills or reduces viability of A549 cells in Nrf2 counter-screen | A549 ARE-Fluc cells, CellTiter-Fluor viability, 18-24 h | Potency, µM (series often up to 46 µM), inactives show top-dose activity change, negative = cytotoxicity, usual class: inhibitors | hit rate 0.16% among 390,000 | AID 504648; also: potency is read from the fitted curve at half-maximal effect; % is scaled to controls: 0 for no effect and ±100 for the full control effect
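A549 ARE-Fluc cells in 5% FBS OPTI-MEM, 5000 cells/well, rested 2 h then exposed to compounds in concentration-response for 18-24 h at 37 °C. Viability by CellTiter-Fluor fluorescence (Ex 405/Em 525) after 30 min; luciferase luminescence (BugLite, 15 min, RT) read afterwards.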
miR-21 FLuc: miR-21 reporter, rising signal; Potency, µM (titrated, usually from 38.3 µM), without a hit: at the highest dose reporter change, positive = more light; AID 2288; 340,000 tested, under 10 active; HeLa miR-21 FLuc reporter, luciferase, 48 h; active = well fitted rising curve with a large enough effect; inconclusive = small, poorly fitted or top-dose-only effect; inactive = no such curve, though single readings can be large or run the other way;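 note: % of control where 0% means no effect; miR-21 action dims this reporter so a rising signal means less miR-21 action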
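HeLa miR-21-FLuc reporter line, endogenous miR-21; 2000 cells/well in DMEM/10% FBS; compound titration up to ~40uM final, 48 h, 37 degree Celsius; luciferase detection reagent, 15 min lysis, CCD luminescence.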
An asterisk follows results filed as active. Unless noted, calls follow the shape of the dose curve; as a rule, active = well fitted curve in the direction sought with a large enough effect; inconclusive = small, poorly fitted or top-dose-only effect, or another doubt; inactive = no such curve, though single readings can be large; an effect the other way counts as inactive or inconclusive.

`O=C(c1ccccn1)N(Cc1ccco1)C1(C(=O)NC2CCCC2)CCCCC1` gave B2AR arrestin -0.3%, Nrf2 activator 0.1%, Nrf2 inh -3.2%, A549 tox -10.0% and miR-21 FLuc 2.1%.
Screening O=S(=O)(Nc1cccc2ccccc12)c1ccc2ccccc2c1 returned Nrf2 inh inconclusive and A549 tox -18.3%.
O=C(c1ccc(N2CCN(C(=O)c3ccccc3Br)CC2)cc1)c1cccc(F)c1 was read as B2AR arrestin 0.1%, Nrf2 activator 0.3%, Nrf2 inh 20.6µM*, A549 tox -22.4% and miR-21 FLuc -1.8%.
For O=C(c1ccc(N2CCN(C(=O)c3cccc(F)c3)CC2)cc1)c1cccc(F)c1 the results were B2AR arrestin 0.1%, Nrf2 activator 0.2%, Nrf2 inh inconclusive, A549 tox inconclusive and miR-21 FLuc 11.5%.
For CC(C)c1ccccc1NC(=O)COC(=O)CCN1C(=O)/C(=C\C=C\c2ccccc2)SC1=S the results were B2AR arrestin -0.6%, Nrf2 activator 9.3%, Nrf2 inh 10.3µM*, A549 tox inconclusive and miR-21 FLuc 26.9%.
`Cc1ccn2cc(CNS(=O)(=O)c3ccc4ccccc4c3)nc2c1` gave B2AR arrestin -0.2%, Nrf2 activator 0.2%, Nrf2 inh 10.7%, A549 tox 11.4% and miR-21 FLuc -2.9%.
`Cc1cccn2cc(CNS(=O)(=O)c3ccc4ccccc4c3)nc12` gave B2AR arrestin -0.2%, Nrf2 activator 0.0%, Nrf2 inh 13µM*, A549 tox -7.1% and miR-21 FLuc 13.4%.
`Cc1cccc(CSC(=N)N)c1` gave B2AR arrestin 0.4%, Nrf2 activator -0.1%, Nrf2 inh -22.1%, A549 tox -14.8% and miR-21 FLuc -2.7%.
For Cc1cccc(CSC(Nc2ccc(F)cc2)=C(C#N)C#N)c1 the results were B2AR arrestin -0.5%, Nrf2 activator 20.4%, Nrf2 inh 18.4µM*, A549 tox -27.4% and miR-21 FLuc inconclusive.
`CC(SCc1ccccc1)C(=O)Nc1ccc(F)cc1` (centres undefined) gave B2AR arrestin 0.5%, Nrf2 activator 0.1%, Nrf2 inh -6.0%, A549 tox 4.6% and miR-21 FLuc -11.2%.
N#CC(C#N)=C(Nc1ccc(F)cc1)SCc1cccc(Br)c1 was read as B2AR arrestin -0.7%, Nrf2 activator inconclusive, Nrf2 inh 4.11µM*, A549 tox inconclusive and miR-21 FLuc inconclusive.
For Cc1[nH]n(-c2ccccc2)c(=O)c1/C=N/NC(=O)c1cccc(F)c1 the results were B2AR arrestin -0.7%, Nrf2 activator 0.2%, Nrf2 inh 7.31µM*, A549 tox -26.6% and miR-21 FLuc 4.2%.
For COCCCNC(=O)C1CCCN(c2ncnc3onc(C)c23)C1 (centres undefined) the results were Nrf2 activator 3.1%, Nrf2 inh inconclusive, A549 tox 0.3% and miR-21 FLuc 4.4%.
Cc1noc2ncnc(N3CCCC(C(=O)NCCC(C)C)C3)c12 (centres undefined) was read as Nrf2 activator 0.1%, Nrf2 inh 23.1µM*, A549 tox -0.2% and miR-21 FLuc 12.1%.
CC(Sc1nc2ccccc2c(=O)n1C)C(=O)N(C)C1CCCCC1 (centres undefined) was read as B2AR arrestin -0.1%, Nrf2 activator -0.2%, Nrf2 inh 18.4µM* and A549 tox -17.9%.
Screening Cc1cccn2c(=O)c(C(=O)NC(C)c3ccccc3)c(O)nc12 (centres undefined) returned Nrf2 activator -0.2%, Nrf2 inh 6.51µM*, A549 tox inconclusive and miR-21 FLuc inconclusive.
Screening COc1ccc(C)cc1NC(=O)c1cccc(-c2ccc(OC(C)=O)cc2)c1 returned B2AR arrestin 0.2%, Nrf2 activator 3.7%, Nrf2 inh 16.4µM*, A549 tox -23.9% and miR-21 FLuc -3.7%.
COc1ccc(-c2cccc(C(=O)Nc3ccccc3C)c2)cc1 was read as B2AR arrestin -0.1%, Nrf2 activator -0.5%, Nrf2 inh -15.9%, A549 tox 2.9% and miR-21 FLuc -10.0%.
`Cc1nn(-c2ccccc2)c(=O)c2ccccc12` gave B2AR arrestin 0.0%, Nrf2 activator 4.7%, Nrf2 inh 3.6%, A549 tox -1.1% and miR-21 FLuc -15.8%.

A draw from above in order of number of heavy atoms, rising:
COc1ccc(-c2cccc(C(=O)Nc3ccccc3C)c2)cc1 was read as B2AR arrestin -0.1%, Nrf2 activator -0.5%, Nrf2 inh -15.9%, A549 tox 2.9% and miR-21 FLuc -10.0%.
For Cc1[nH]n(-c2ccccc2)c(=O)c1/C=N/NC(=O)c1cccc(F)c1 the results were B2AR arrestin -0.7%, Nrf2 activator 0.2%, Nrf2 inh 7.31µM*, A549 tox -26.6% and miR-21 FLuc 4.2%.
O=C(c1ccc(N2CCN(C(=O)c3ccccc3Br)CC2)cc1)c1cccc(F)c1 was read as B2AR arrestin 0.1%, Nrf2 activator 0.3%, Nrf2 inh 20.6µM*, A549 tox -22.4% and miR-21 FLuc -1.8%.

High-throughput results (PubChem BioAssay)
